Measurements: PubChem BioAssay AID624156 (Broad Institute, 2012)
This is a selection; strong and weak results do not stand in their true shares. Active and inactive are the calls of the source. Cut-off read from the data, not from the text of the source: active = ROS induction above about 79% (passing the limit was not always enough); inconclusive = no clear call, values can overlap the other calls.

Assay: ROS inducers in U2OS cancer cells, primary screen, cell-based, H2DCF-DA fluorescence (AID 624156);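 note: 0% = DMSO vehicle median and 100% = reference compound median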
Conditions: at 10 µM, stronger effect = higher value

Row | Structure (SMILES) | ROS induction (% of piperlongumine)
1 | O=C(OC1CN2CCC1CC2)c1ccc(Cl)cc1 (stereo not given) | inactive: 17.2%
2 | Cc1cccc(OCC(=O)OC2CN3CCC2CC3)c1 (stereo not given) | inactive: 16.3%
3 | Cc1ccc(C(=O)OC2CN3CCC2CC3)cc1 (stereo not given) | inactive: 0.486%
4 | O=P1(Nc2ccccn2)COc2ccccc2OC1 | inactive: 12.5%
5 | CN(C(=O)Cc1ccc(Cl)c(Cl)c1)[C@H]1CCCC[C@@H]1N1CCCC1 | inactive: 1.35%
